Earlier results as cited in patent US20070237796A1, “Stable High Pl Hydrogel Compositions” (priority 2003, published 2007).

COOCC(O)COOC
pKa: 13.7
